# Apparent affinities of Ab-14 variants for a coronavirus HR2 peptide

Reference: Engelhart et al. 2022, doi:10.1038/s41597-022-01779-4. File: FLAb, binding data.

Antigen: PDVDLGDISGINAS, a 14-residue peptide of the SARS-CoV-2 spike HR2 region.

Parent: Ab-14, a human scFv built as VH, the linker GGGGSGGGGSGGGGS, VL. Only the CDRs of the light chain vary.
VH: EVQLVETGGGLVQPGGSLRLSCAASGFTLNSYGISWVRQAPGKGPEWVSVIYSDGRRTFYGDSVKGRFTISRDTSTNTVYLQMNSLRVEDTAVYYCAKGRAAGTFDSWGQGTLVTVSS
VL: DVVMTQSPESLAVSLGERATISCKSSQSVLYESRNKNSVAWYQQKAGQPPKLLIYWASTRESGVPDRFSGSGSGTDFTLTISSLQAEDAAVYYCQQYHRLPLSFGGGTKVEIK

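The parent was found by panning a naive human phage display library on the peptide. In library AAYL50, one, two or three CDR residues were substituted; doubles and triples were drawn at random. The assay is AlphaSeq: two haploid yeast populations carry antibody and antigen on their surface. Binding brings cells together so that they mate, and sequencing counts the barcode pairs among the diploids. The ratio of observed to expected reads was calibrated, replicate by replicate, on BCL2-family standards whose Kd was known from biolayer interferometry. There are three technical replicates.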

Positions count from residue 1 of the parent VL; S28T puts T in place of S.
Values are log10 of the apparent Kd in nM; lower means stronger binding.
An entry "ND" has no value in the source: the pair was not observed among the diploids in that replicate. This suggests poor binding but is not conclusive.

changes,"log10 Kd, replicates",signal with controls
S28T/Q95W,ND ND ND,0 of 9
S62R/L102T,2.61 3.07 3.06,1 of 9 (4.01)
R34T/S58A/S103C,ND ND ND,1 of 9 (2.90)
N37Y/S58F/Q95A,2.60 2.49 2.94,3 of 9 (4.19)
S25M/Q27C/S28V,2.02 1.98 1.85,0 of 9
Y31K/R60L/R99D,1.70 1.90 ND,0 of 9
S33Y/R34W/V39M,2.49 4.16 ND,0 of 9
N35R/L102G/S103V,1.16 1.37 1.39,2 of 9 (4.87)
S25K/L30D/R34L,ND ND 4.25,1 of 9 (3.97)
R34P/A40W/Y97E,ND ND ND,1 of 9 (4.24)
L30M/S62Q/L102R,ND 3.64 ND,2 of 9 (3.41)
A40W/Y97F/P101E,ND ND 5.77,1 of 9 (5.48)
K24A/S28Q/P101N,1.70 2.16 2.62,3 of 9 (3.78)
N37D/R99V/S103R,ND 1.96 ND,0 of 9
S25C/V29C/S38R,1.87 1.80 2.10,0 of 9
E32L/N35S/S62V,2.27 1.96 2.28,2 of 9 (3.75)
S38H/V39M/T59I,ND ND ND,0 of 9
E32C/R34Y/K36W,ND ND ND,1 of 9 (2.54)
K24V/A57N/R99H,ND ND ND,7 of 9 (4.30)
R34H/V39L,ND ND 4.15,1 of 9 (4.39)
S28K/R34F/S58I,2.57 2.87 2.80,1 of 9 (3.50)
N37G/W56K/L100T,1.90 1.79 1.90,2 of 9 (3.98)
A40P,ND ND ND,0 of 9
K24A/L30F/S103L,2.77 2.26 2.51,4 of 9 (3.19)
S38F/V39Y/W56I,ND ND ND,0 of 9
A40P/S58C,3.52 ND ND,0 of 9
E61M/R99Y/S103A,1.13 1.11 1.10,2 of 9 (4.92)
S26I/V39R/E61H,ND 4.17 4.51,5 of 9 (4.93)
K24G/N37H,1.48 1.59 1.52,3 of 9 (4.32)
V39D/A40W/R99A,5.85 5.08 ND,2 of 9 (4.24)
N37G/A57E/S103E,ND ND ND,2 of 9 (3.91)
S25P/N35M/R99L,ND ND ND,0 of 9
E32T/Y97V/L102T,2.23 ND 2.98,1 of 9 (2.84)
S25W/V29L/V39W,ND ND ND,2 of 9 (3.75)
W56H/Q95D/R99T,1.22 1.24 1.07,8 of 9 (4.51)
W56F/Y97C/P101T,1.22 1.40 1.19,0 of 9
Q27F/S62C/Q95V,ND ND ND,0 of 9
S25M/N37K/V39H,4.36 3.86 ND,3 of 9 (4.23)

Picked from the list: the 3 lowest averages where every replicate gave a value.

changes,"log10 Kd, replicates",signal with controls
E61M/R99Y/S103A,1.13 1.11 1.10,2 of 9 (4.92)
W56H/Q95D/R99T,1.22 1.24 1.07,8 of 9 (4.51)
W56F/Y97C/P101T,1.22 1.40 1.19,0 of 9

Nonspecific signal, from three strains lacking the peptide, appeared in 18% of pairings of library AAYL50, centred on 4.19 (5% of these signals below 2.99); values are not corrected for it. Also given: how often the same scFv was detected with the empty control strains, with their mean in brackets.